Literature values in patent publication US8097625B2, “Combination of sedative and a neurotransmitter modulator, and methods for improving sleep quality and treating depression” (priority 2003, dated 2012).

The chains behind the UniProt entries cited, without tags or fusion partners.
UniProt P23975, whole entry: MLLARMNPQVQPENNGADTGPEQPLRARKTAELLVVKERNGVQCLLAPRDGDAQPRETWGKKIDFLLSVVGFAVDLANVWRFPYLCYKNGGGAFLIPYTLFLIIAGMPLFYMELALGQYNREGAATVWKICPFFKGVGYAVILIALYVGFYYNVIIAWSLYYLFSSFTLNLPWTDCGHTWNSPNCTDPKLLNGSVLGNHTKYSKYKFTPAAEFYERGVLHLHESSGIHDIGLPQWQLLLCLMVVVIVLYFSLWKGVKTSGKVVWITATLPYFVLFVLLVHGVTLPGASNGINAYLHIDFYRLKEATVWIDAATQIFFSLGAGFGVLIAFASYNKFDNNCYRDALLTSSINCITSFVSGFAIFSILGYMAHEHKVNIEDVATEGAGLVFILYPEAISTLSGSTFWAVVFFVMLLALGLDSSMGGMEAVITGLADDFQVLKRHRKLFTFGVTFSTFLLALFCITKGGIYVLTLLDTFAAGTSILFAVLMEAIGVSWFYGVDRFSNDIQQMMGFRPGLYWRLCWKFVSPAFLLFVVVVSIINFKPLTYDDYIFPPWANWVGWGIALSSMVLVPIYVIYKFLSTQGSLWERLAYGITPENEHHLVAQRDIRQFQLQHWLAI

Biological target: norepinephrine transporter (Homo sapiens, UniProt P23975)
Conditions: read-out: Ki, norepinephrine transporter; cited from earlier work

For CC(NC(C)(C)C)C(=O)c1cccc(Cl)c1 (stereo not shown) [Bupropion], the Ki is listed as 1.4 µM.
